The chains behind the UniProt entries cited, without tags or fusion partners.
UniProt Q96LA9, whole entry L83S: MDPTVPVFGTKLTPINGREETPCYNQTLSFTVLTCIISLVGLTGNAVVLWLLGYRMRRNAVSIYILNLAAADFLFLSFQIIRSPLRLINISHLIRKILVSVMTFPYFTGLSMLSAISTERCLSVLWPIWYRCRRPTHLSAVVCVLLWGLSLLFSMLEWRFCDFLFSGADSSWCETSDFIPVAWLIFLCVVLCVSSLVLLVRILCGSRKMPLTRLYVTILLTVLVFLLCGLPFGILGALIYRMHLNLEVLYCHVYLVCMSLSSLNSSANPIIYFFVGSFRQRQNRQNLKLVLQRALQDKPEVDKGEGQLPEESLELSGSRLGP

In US20210128561A1, “MRGX Receptor Antagonists” (Rheinische-Friedrich-Wilhelms-Universität Bonn, priority 2019, published 2021):

Target: human MrgX4 L83S (Homo sapiens, UniProt Q96LA9, L83S)
Test: β-arrestin assay (CHO β-arrestin human MrgX4 L83S)
Type: cell-based

IC50: 58.2 nM
SMILES: CCc1c(C(C)(C)O)[nH]c2nc3cc(F)ccc3n2c1=O
